Measured values reported in patent US20260384421A1, “NOVEL COMPOUNDS THAT CAN BE USED AS THERAPEUTIC AGENTS” (published 2026).

How the values were obtained:
SK-MEL-5 melanoma cells = assay: treatment-sensitization activity assay with PLX-4720 on SK-MEL-5 cells; settings: combination with PLX-4720 (10 μM), SK-MEL-5 cells; additional decrease in relative viability as compared to single treatment with PLX-4720
Excerpt: Sensitization through a compound to other treatments can be assessed by investigating the growth behaviour of cancer cells being not or only poorly responsive to said other treatments in the presence of the sensitizing compound in a combination treatment. The sensitization activity of a compound falling under general formula (I) was investigated in a combination treatment with the B-Raf-V600E inhibitor PLX-4720 (MedChemExpress, #HY-51424) in a viability assay on PLX-4720-poorly responsive SK-MEL-5 melanoma cells harbouring a BRAF V600E mutation. SK-MEL-5 cells, obtainable from the American Type Culture Collection (ATCC) under the accession number ATCC-HTB-70, were cultivated in EMEM medium (ATCC, #30-2003) containing 10% fetal bovine serum (Fisher Scientific, Gibco™ #A31608) at 37 °C and 5% CO2. The viability assay was performed according to the protocol as described above using alamarBlue® (Bio-Rad Serotec GmbH, BUF012B). To this end, SK-MEL-5 cells were seeded into 96-well plates (CORNING #3598) suitable for fluorescence assays at a cell number of 4'000 cells per well containing 10 μL per well of 10× compound working solutions or the empty carrier DMSO as control. The cells were treated with compounds at final concentrations of 1 μM for the compound of formula (I) and 10UM for PLX-4720. […] Relative viability values were calculated from the fluorescence intensities as described above. […]

MDA-MB-231 cells = assay: combination treatment activity assay with syrosingopine on MDA-MB-231 cells; settings: compound 10 nM + syrosingopine 10 μM; 2 days; D-glucose-containing RPMI 1640
Experimental: The synergistic or additive activity of a compound falling under general formula (I) was investigated in a combination treatment with the MCT1/MCT4 inhibitor syrosingopine (TargetMol, #TN2252) in a viability assay on MDA-MB-231 cells cultured in D-Glucose-containing RPMI 1640 medium (Fisher Scientific, Gibco™ #72400) supplemented with 10% fetal bovine serum (Fisher Scientific, Gibco™ #A31608) and on HCT-116 cells cultured as described above. The viability assay was performed according to the protocol as described above using alamarBlue® (Bio-Rad Serotec GmbH, BUF012B). To this end, according cells were seeded into 96-well plates (CORNING, #3598) suitable for fluorescence assays at a cell number of 7'000 cells per well for MDA-MB-231 and 7'000 cells per well for HCT-116, and incubated over night at 37 °C and 5% CO2. Then, in a volume of 90 μL medium per well the cells were treated with compounds at a final concentration of 10 nM for the compound of formula (I) and 10 μM for syrosingopine by adding 10 μL per well of a 10× compound working solution or the empty carrier DMSO as control. The 10× working solutions were prepared by diluting both compounds from their 2000×DMSO stock-solutions together 1:200 each in H2O (Water For Injection, WFI, Fisher Scientific, Gibco™ #A12873) for the combination treatment, or by diluting their 2000×DMSO stock-solutions individually with the empty carrier DMSO 1:200 in H2O for the corresponding single treatments. Addition of the compound working solutions into the wells yielded a final assay volume of 100 μL per well containing 0.1% v/v DMSO. After 2 days incubation at 37 °C and 5% CO2, the cells were subjected to the alamarBlue® Proliferation Assay as described above. Relative viability values were calculated from the fluorescence intensities as described above.
A decrease in relative viability upon single treatment was not observed for the tested compounds of formula (I) and less than 25% for syrosingopine. […]

O=C(c1ccc(Oc2ccc(C3CCC4(CC3)OCCO4)cc2CO)cc1)N1CCN(Cc2ccc(Cl)cc2)CC1
Activity as treatment enhancer: viability decrease (SK-MEL-5 melanoma cells): viability decrease >50%
Activity as treatment enhancer (additional viability decrease as compared to single treatment with syrosingopine) (MDA-MB-231 cells): viability decrease >45%
